In assay [1] the test system is human umbilical vein endothelial cells (HUVEC). Description: HUVEC treated with proinflammatory cytokines, readout parameters by cell-based ELISA. The settings on record: for ICAM-1 level: TNF-α 5 ng/ml, IFN-γ 100 ng/ml, IL-1 1 ng/ml. The protocol: Primary human umbilical vein endothelial cells (HUVEC) are used. Other cells that may replace HUVEC in the screen include primary microvascular endothelial cells, aortic or arteriolar endothelial cells or endothelial cell lines such as EAhy926 or E6-E7 4-5-2G cells or human telomerase reverse transcriptase-expressing endothelial cells (Simmons, J. Immunol., 148:267, 1992; Rhim, Carcinogenesis 19:673, 1998; Yang, J. Biol. Chem. 274:26141, 1999). 2×10^4 cells/ml are cultured to confluence in EGM-2 (Clonetics). Other media that may replace EGM-2 include EGM (Clonetics) and Ham's F12K medium supplemented with 0.1 mg/ml heparin and 0.03-0.05 mg/ml endothelial cell growth supplement (ECGS) and 10% FBS, or medium M199 (Life Technologies, Inc.) containing 20% fetal bovine serum and 2 ng/ml basic fibroblast growth factor (Jaffe, J. Clin. Invest. 52:2745,1973; Hoshi, PNAS 81:6413,1984).
The data provided in FIGS. 1A-1C illustrate the usefulness of the present invention in compound screening applications. […] After 24 hours, cultures are washed and evaluated for the presence of the parameters ICAM-1 (1), VCAM-1 (2), E-selectin (3), IL-8 (4), CD31 (5), HLA-DR (6) and MIG (7) by cell-based ELISA as described (Melrose, J. Immunol. 161:2457, 1998). For this, plates are blocked with 1% Blotto for 1 hr, and treated with primary antibodies (obtained from Pharmingen and Becton Dickinson) at 1 ng/ml for 2 hr. After washing, secondary peroxidase-conjugated anti-mouse IgG antibody (Promega) at 1:2500 is applied for 45 min. After washing, TMB substrate (Kierkegaard & Perry) is added and color developed. Development is stopped by addition of H2SO4 and the absorbance at 450 nm (subtracting the background absorbance at 600 nm) is read with a Molecular Dynamics plate reader. The relative expression levels of each parameter are indicated by the OD at 450 nm shown along the y-axis. The mean +/−SD from triplicate samples is shown. The assay combinations are useful in screening compounds that modulate TNF-α, IL-1 and IFN-γ signaling pathways, however, compounds must be evaluated separately in all three assay combinations to identify compounds that selectively modulate one or more of these pathways. In addition, compounds that selectively modulate combinatorial effects of these pathways cannot be distinguished.
After 24 hours, cultures are washed and evaluated for the presence of the parameters ICAM-1 (1), VCAM-1 (2), E-selectin (3), IL-8 (4), CD31 (5), HLA-DR (6) and MIG (7) by cell-based ELISA performed as described above, and are reported as the OD at 450 nm. The mean +/−SD from triplicate samples are shown. * indicates p<0.05 comparing results obtained with the two separate conditions. HUVEC cultured with TNF-α for 24 hours express increased levels of cell surface ICAM-1, VCAM-1, and E-selectin as measured by cell-based ELISA. HUVEC cultured with IFN-γ for 24 hours express increased levels of ICAM-1, HLA-DR and MIG. HUVEC cultured in the presence of both TNF-α and IFN-γ for 24 hours produce a combined phenotype where HUVEC express increased levels of ICAM-1, VCAM-1, E-selectin, HLA-DR and MIG. This phenotype is more similar to the in vivo phenotype of endothelial cells in chronic inflammation and moreover reflects the stimulation of two different known pathways of interest in regulation of inflammatory processes. Concentrations of TNF-α and IFN-γ employed and length of exposure are standard according to the literature.
Inclusion of additional biologically active factors further improves the usefulness of the screens provided in the present invention. […] After 24 hours, cultures are washed and evaluated for the presence of the parameters ICAM-1 (1), VCAM-1 (2), E-selectin (3), IL-8 (4), CD31 (5), HLA-DR (6) and MIG (7) by cell-based ELISA performed as described above, and are reported as the OD at 450 nm. The mean +/−SD from triplicate samples are shown. * indicates p<0.05 comparing results obtained with the two separate conditions. […]
On the technique in general: An ELISA detects its analyte on a solid surface through an enzyme-linked reagent.

Assay [2] shares this test system. Nature of the assay: Apoptosis assay panel (ceramide, TNF-α) with LDH release and cell-based ELISA. The settings on record: factor added to endothelial cell cultures, vs basal conditions. The procedure: Other standard vectors or tranfection protocols can be substituted. […] In this example, the test genes are human Bcl-2 and Bcl-xL. […] DEAE dextran (conc lopg/ml) is added to facilitate vector transduction.
(Release of lactate dehydrogenase indicates damage to the cell membrane.)

Where [3] appears, read: HUVEC cultured with cytokine(s) 24 hours, vs basal medium.
Setting [4] is: HUVEC cultured with cytokine(s) 24 hours, vs basal medium, listed as TNF-alpha.

For the substance “TNF-α: proinflammatory cytokine added to HUVEC”, the IL-8 level result in assay [1] (HUVEC after cytokine activation) was “to a lesser extent”. Also, in assay [1] (setting [3]), the ICAM-1 level result is listed as “increased”, the E-selectin level result is “increased” and the VCAM-1 level result is recorded as “increased”. In addition, in assay [1] (setting [4]), the ICAM-1 level entry is given as “mainly up-regulate” and the VCAM-1 level entry was “mainly up-regulate”. Moreover, the “cell damage as release of cytoplasmic lactate dehydrogenase into the supernatant” value in assay [2] is on record as “enhanced”.
